# Yeast mating assay B: variants of the scFv Ab-14

The measurements come from Li et al. 2023 (doi:10.1038/s41467-023-39022-2) through the FLAb antibody collection.

The target is the same throughout: PDVDLGDISGINAS, from the HR2 region of SARS-CoV-2 spike.

Each scFv is VH, the linker GGGGSGGGGSGGGGS, VL, as in the parent Ab-14, and differs from it in the CDRs of the heavy chain only.
VH: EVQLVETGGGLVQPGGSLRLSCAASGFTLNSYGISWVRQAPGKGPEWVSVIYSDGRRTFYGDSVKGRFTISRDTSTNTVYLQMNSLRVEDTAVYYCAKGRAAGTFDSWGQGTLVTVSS
VL: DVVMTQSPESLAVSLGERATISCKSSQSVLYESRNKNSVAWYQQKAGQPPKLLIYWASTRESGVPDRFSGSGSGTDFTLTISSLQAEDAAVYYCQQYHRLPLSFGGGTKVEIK

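Phage display of a naive human antibody library on the peptide gave the parent. This is the validation round: designs drawn from the data on random variants, tested in the same kind of assay. Several design methods are mixed in this list. Affinity was read by AlphaSeq, a pooled yeast mating assay with surface-displayed partners. The frequency of each diploid, read from paired DNA barcodes, reflects how well the two displayed proteins bind. Read counts were normalised to the haploid input and turned into Kd by a linear fit to BCL2-family pairs of known affinity, for each replicate. The assay was run in six technical replicates.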

The parent's heavy chain CDRs are GFTLNSYGIS, VIYSDGRRTFYGDSVK, GRAAGTFDS; each variant's own CDRs replace them letter for letter. Scale: log10 of Kd in nM, estimated from mating counts; low values are strong binders. The mean shown is taken over the replicates in which the pair was detected. Where no diploid with the target was found in any replicate, the entry reads "not detected": below detection, most likely a poor binder, though not proof of it. Order: sorted from the lowest average up, undetected variants last. The range of this assay differs from that of the first round, and the authors advise against merging the two.

CDR-H1,CDR-H2,CDR-H3,"log10 Kd (nM), mean",seen in
GFDLDEYGIS,VIYADGMRTFYADSVK,GSNAGTFDV,-1.53,6 of 6
GFDLNEYGIS,VIYADGMRTVYSDSVK,GNVAGTFDI,-1.28,6 of 6
GFELNEYGIS,VIYSDGRRTYYGDSVK,GRTAGTFDS,-1.14,2 of 6
GFDLNEYGIS,VIYADGVRQAYADSVK,GNQAGTFDV,-1.07,6 of 6
GFDLNEYGIS,VIYADGMRTVYADSVK,GNNAGTFDL,-0.99,6 of 6
GFDLNEYGIS,VIYADGLRTAYVDSVK,GNQAGTFDV,-0.71,6 of 6
GFDLNSYGIS,VIYSDGKRTFYGDSVK,GREAGTFDS,-0.55,6 of 6
GFSLDEYGIS,VIYADGRRTFYVDDVK,GNVAGTFDS,-0.51,6 of 6
GFSLNSYGIS,VIYSDGRRTFYGDSVK,GHAAGTFDT,-0.46,6 of 6
GFDLNEYGIS,VIYADGRRTFYSDSVK,GQLAGTFDT,-0.46,6 of 6
GFTIDEYGIS,VIYADGQRVAYDEKVK,GMLAGTFDQ,-0.43,6 of 6
GFDINEYGIS,VIYADGRRTAYADSVK,GEAAGTFDL,-0.39,6 of 6
GFDLEDYGIS,VIYADGRRTFYSDSVK,GEIAGTFDQ,-0.36,6 of 6
GFDLEDYGIS,VIYADGMRTAYADSVK,GNVAGTFDT,-0.29,6 of 6
GFDLNEYGIS,VIYADGKRTFYADSVK,GENAGTFDQ,-0.25,6 of 6
GFDLDEYGIS,VIYADGRRTFYADSVK,GETAGTFDS,-0.24,6 of 6
GFDLEDYGIS,VIYADGRRTAYIDSVK,GEAAGTFDS,-0.22,6 of 6
GFDLNEYGIS,VIYADGRRTAYADSVK,GEVAGTFDL,-0.19,6 of 6
GFDLNEYGIS,VIYADGRRTQYIDSVK,GNQAGTFDA,-0.17,6 of 6
GFELNSYGIS,VIYADGRRTFYGDSVK,GKAAGTFDR,-0.10,6 of 6
GFDLEEYGIS,VIYADGQRTAYADSVK,GQNAGTFDV,0.18,6 of 6
GFNLNEYGIS,VIYADGMRTFYSDSVK,GEAGGTFDV,0.18,6 of 6
GFDLEDYGIS,VIYADGRRTAYADSVK,GENAGTFDV,0.19,6 of 6
GFDLNEYGIS,VIYADGMRTAYADSVK,GNVAGTFDF,0.21,6 of 6
GFTLNSYGIS,VIYADGRRTFYGDSVK,GKAAGTFDD,0.28,6 of 6
GFTLESYGIS,VIYSDGRRTFIGDSVK,GTAAGTFDS,0.38,6 of 6
GFDLNEYGIS,VIYADGKRTAYSDSVK,GSNAGTFDV,0.38,6 of 6
GFDLNSYGIS,VIYSDGRRTAYGDSVK,GRAAGTFDV,0.38,6 of 6
GFDLNEYGIS,VIYADGQRTFYTDSVK,GGNAGTFDS,0.45,6 of 6
GFDLNEYGIS,VIYADGVRTQYIDSVK,GEQAGTFDS,0.53,3 of 6
GFTLNSYGIS,VIYADGRRTFYGDNVK,GRAAGTFDS,0.54,6 of 6
GFTLESYGIS,VIYSDGRRTFYGDSVK,GQTAGTFDA,0.54,6 of 6
GFSLNDYGIS,VIYSDGRRTFYGDSVK,GRYAGTFDS,0.56,6 of 6
GFTLNSYGIS,VIYSDGMRTFYGDSVK,GRTAGTFDS,0.77,6 of 6
GFDLNSYGIS,VIYSDGRRTFYRDSVK,GRQAGTFDS,0.80,6 of 6
GFTLNSYGIS,VIYSDGRRTFYHDSVK,GKEAGTFDT,0.83,6 of 6
GFTLNSYGIS,VIYSDGVRTFYADSVK,GQAAGTFDS,0.98,6 of 6
GFTLNSYGIS,VIYSDGRRTFYGDSVK,GRAAGTFSH,1.04,6 of 6
GFTLNDYGVS,VIYSDGRRTFYIDSVK,GRAAGTFDQ,1.11,4 of 6
GFHLNSYGIS,VIYSDGRRTFYADQVK,GQTAGTFDS,1.33,6 of 6
GFALGSYGIS,VIYSDGRRTFYGDSVK,GRAAGTFDS,1.38,3 of 6
KFSLNEYGIS,VIYSDGRRTFYGDSVK,GRHAGTFDS,1.43,6 of 6
GFYLNSYGIS,VIYSDGRRTFYIDSVK,GNAAGTFDS,1.62,1 of 6
GFKLNSYGIS,VIYSDGRRTFYKDSVK,GQTAGTFDS,1.91,6 of 6
GFSLDEYGIS,VIYADGARAAYTNDFK,GNITGVFGK,1.92,1 of 6
GFTLNEYGIS,VIYSDGRRTFYSDSVK,GRPSGLFDS,1.94,1 of 6
GFQLNEYGIS,VIYADGMRSEYQDSVK,GSNSSSFDV,2.01,1 of 6
GFELNDYGIS,VIYSDGRRTEYSDSVK,GRAAGTFDS,2.33,4 of 6
GFTLNDCGIS,VIYSDGDRTQYIDSVK,GRAAGTFDS,2.40,1 of 6
GFTLESYGIS,VIYSDGRRTFYADRVK,GRTAGTFDS,2.57,2 of 6
GFTLNEYGIS,VIYFDGRRTFYGDSVK,GRAQGTFDS,4.15,1 of 6
GFTLRSYGIS,VIYSDGRRTFYGDSVR,GDAQGTFDA,not detected,0 of 6
QFTLNSYGIS,VIYSDWRRTFYQDSVL,GRAMGTFDL,not detected,0 of 6
GYDIDEYGIS,VIYADGQRTAYQNNVK,GEQDGIMTY,not detected,0 of 6
GFTLNSYGRS,VIYSDGQRTFYGGSVK,GRAAGTFDS,not detected,0 of 6
GFTLGSYGIS,VIYSDGIRTFYGDSVK,GRAAGTADV,not detected,0 of 6
GFDLDEYGIS,VIYADGMRTAYSDSVK,GGNAGTFDQ,not detected,0 of 6
GFDVNSYGIS,VIYSDGRRTFYINSVK,GYAAGTFES,not detected,0 of 6
KFTLNSYGIS,VIYSDGRRTFYGDSVK,GKIAGTFDS,not detected,0 of 6
GEDLQEYGIS,VIYADGQRIYYSDDVK,GQVAGHFLV,not detected,0 of 6
GFDIDEYGVS,VIYADGFRVAYAESVK,GLQQFGFTI,not detected,0 of 6
GFTLPSYGID,VIYSDGRRTFYDDSVK,GQLAGTFDS,not detected,0 of 6
GFTLNQYGIS,VIYSDGRRTFIGDSVK,GWEIGAFDS,not detected,0 of 6
GFTLNEYGIS,VIYSDGRRTFYGDSVK,GRAACTFIL,not detected,0 of 6
GFDLDEYGIS,VIYADGKRMAYQADVK,GVQGGNALV,not detected,0 of 6
GFNLSEYGIS,VIYADGMRSEYADNVK,GHKGNTFID,not detected,0 of 6
GFTLNEPGIS,VIYSDGRRTFYGQSVK,GRAAVTFDG,not detected,0 of 6
GFTLNSYGIS,VIYSDGRRTFYGDSVK,GRNAGTFPS,not detected,0 of 6
GFTVNEYGIS,VIYSDGRRTFYTGSVK,GRFAGTFDS,not detected,0 of 6
GHTLNSYGIS,VIYSDGLRTFYGDSVK,GRATGTFDS,not detected,0 of 6
GFDLNEYGVS,VIYADGQRRAYAANFK,GVNAGGLDI,not detected,0 of 6
GFTLNDYGIS,VIYSDGRRTQYIDSVK,GRAAGTFRS,not detected,0 of 6
GFALNSYGIS,VIYSDGRRTIYGDSVK,GNAAGTFDS,not detected,0 of 6
GFTLNSYGVS,VIYSDGRRTFYGDSVK,GRAVGTFDS,not detected,0 of 6
GQTLNSYGIS,VIYADGHRRFYGDSVK,GRAADTFDS,not detected,0 of 6
LFALDSYGIS,VIYSDGFRTFYGDSVK,GRAAGTFDS,not detected,0 of 6
GFQIEEYGIS,VIYADGSRTEYTDSVK,GKYIFNLDV,not detected,0 of 6

The first 8 variants above that were never detected:

{"CDR-H1": "GFTLRSYGIS", "CDR-H2": "VIYSDGRRTFYGDSVR", "CDR-H3": "GDAQGTFDA", "log10 Kd (nM), mean": "not detected", "seen in": "0 of 6"}
{"CDR-H1": "QFTLNSYGIS", "CDR-H2": "VIYSDWRRTFYQDSVL", "CDR-H3": "GRAMGTFDL", "log10 Kd (nM), mean": "not detected", "seen in": "0 of 6"}
{"CDR-H1": "GYDIDEYGIS", "CDR-H2": "VIYADGQRTAYQNNVK", "CDR-H3": "GEQDGIMTY", "log10 Kd (nM), mean": "not detected", "seen in": "0 of 6"}
{"CDR-H1": "GFTLNSYGRS", "CDR-H2": "VIYSDGQRTFYGGSVK", "CDR-H3": "GRAAGTFDS", "log10 Kd (nM), mean": "not detected", "seen in": "0 of 6"}
{"CDR-H1": "GFTLGSYGIS", "CDR-H2": "VIYSDGIRTFYGDSVK", "CDR-H3": "GRAAGTADV", "log10 Kd (nM), mean": "not detected", "seen in": "0 of 6"}
{"CDR-H1": "GFDLDEYGIS", "CDR-H2": "VIYADGMRTAYSDSVK", "CDR-H3": "GGNAGTFDQ", "log10 Kd (nM), mean": "not detected", "seen in": "0 of 6"}
{"CDR-H1": "GFDVNSYGIS", "CDR-H2": "VIYSDGRRTFYINSVK", "CDR-H3": "GYAAGTFES", "log10 Kd (nM), mean": "not detected", "seen in": "0 of 6"}
{"CDR-H1": "KFTLNSYGIS", "CDR-H2": "VIYSDGRRTFYGDSVK", "CDR-H3": "GKIAGTFDS", "log10 Kd (nM), mean": "not detected", "seen in": "0 of 6"}

The parent sequence was in this pool as ten entries: three were never detected, three once, and four in most replicates, with averages from 0.34 to 2.37. Empty control strains, which show no peptide, gave a signal in 1% of pairings with all heavy chain designs; the median was 2.08 and 95% of these signals were weaker than 0.84. No background was subtracted. The authors averaged sequences with at least three values out of six and counted those with two or fewer as poor binders.